The test system of this assay is Sprague-Dawley rats. The following applies: 10 mg/kg i.p., p > 0.05.

Each structure is given as a SMILES string.

Turning to `O=C(NCCc1cccc(Cl)c1)Nc1ccc(Cl)cc1` [Compound 31, 3-(4-Chlorophenyl)-1-[2-(3-chlorophenyl)ethyl]urea], the inactive lever response result is “did not significantly affect”.

(Values after PMC8969894 (Journal of medicinal chemistry, 2021).)
